# In US8158591B2, “Anticancer treatment with a combination of taxanes and 13-deoxyanthracyclines” (Gem Pharmaceuticals, LLC, priority 2006, dated 2012):
# Tested on: P388 murine leukemia
# Test: in vivo anticancer activity in murine leukemia model, CD2F1 mice injected with P388 cells
# Details: 1 million P388 cells ip, drug ip on days 1-9, n = 10, listed as 5-imino-13-deoxydoxorubicin
smiles,measurement,value
COc1cccc2c1C(=N)c1c(O)c3c(c(O)c1C2=O)C[C@@](O)(CCO)C[C@@H]3OC1CC(N)C(O)C(C)O1 (stereo partly shown) [Compound III],Median survival time,significant increase in median survival time
